Experimental data from FireProtDB (doi:10.1021/bi0158932).

B1: Alpha-1-antitrypsin, P01009 (parent)
chain: MPSSVSWGILLLAGLCCLVPVSLAEDPQGDAAQKTDTSHHDQDHPTFNKITPNLAEFAFSLYRQLAHQSNSTNIFFSPVSIATAFAMLSLGTKADTHDEILEGLNFNLTEIPEAQIHEGFQELLRTLNQPDSQLQLTTGNGLFLSEGLKLVDKFLEDVKKLYHSEAFTVNFGDTEEAKKQINDYVEKGTQGKIVDLVKELDRDTVFALVNYIFFKGKWERPFEVKDTEEEDFHVDQVTTVKVPMMKRLGMFNIQHCKKLSSWVLLMKYLGNATAIFFLPDEGKLQHLENELTHDIITKFLENEDRRSASLHLPKLSITGTYDLKSVLGQLGITKVFSNGADLSGVTEEAPLKLSKAVHKAVLTIDEKGTEAAGAMFLEAIPMSIPPEVKFNKPFVFLMIEQNTKSPLFMGKVVNPTQK

Variants of: B1
Settings: Homo sapiens, pH 7.8, Tris 50 mM, reversible: yes, structure 1QLP, whole UniProt chain shown; for denaturant midpoint (higher = more stable) / unfolding free energy / denaturant m value: 25 °C, GdnHCl, transition: 3; for Tm: Thermal

Variant	denaturant midpoint (higher = more stable) (CD, NaCl 50 mM)	unfolding free energy (CD, NaCl 50 mM)	Tm (CD, NaCl 50 mM)	denaturant m value (CD, NaCl 50 mM)	denaturant m value (Fluorescence, KI 2 M)	denaturant midpoint (higher = more stable) (Fluorescence, KI 2 M)	unfolding free energy (Fluorescence, KI 2 M)
MPSSVSWGILLLAGLCCLVPVSLAEDPQGDAAQKTDTSHHDQDHPTFNKITPNLAEFAFSLYRQLAHQSNSTNIFFSPVSIATAFAMLSLGTKADTHDEILEGLNFNLTEIPEAQIHEGFQELLRTLNQPDSQLQLTTGNGLFLSEGLKLVDKFLEDVKKLYHSEAFTVNFGDTEEAKKQINDWVEKGTQGKIVDLVKELDRDTVFALVNYIFFKGKWERPFEVKDTEEEDFHVDQVTTVKVPMMKRLGMFNIQHCKKLSSWVLLMKYLGNATAIFFLPDEGKLQHLENELTHDIITKFLENEDRRSASLHLPKLSITGTYDLKSVLGQLGITKVFSNGADLSGVTEEAPLKLSKAVHKAVLTIDEKGTEAAGAMFLEAIPMSIPPEVKFNKPFVFLMIEQNTKSPLFMGKVVNPTQK [Y184W]	1 M and 2.9 M	4.2 kcal/mol and 2 kcal/mol	65 °C	–	–	–	–
MPSSVSWGILLLAGLCCLVPVSLAEDPQGDAAQKTDTSHHDQDHPTFNKITPNLAEFAFSLYRQLAHQSNSTNIFFSPVSIATAFAMLSLGTKADTHDEILEGLNFNLTEIPEAQIHEGFQELLRTLNQPDSQLQLTTGNGLFLSEGLKLVDKFLEDVKKLYHSEAFTVNFGDTEEAKKQINDAVEKGTQGKIVDLVKELDRDTVFALVNYIFFKGKWERPFEVKDTEEEDFHVDQVTTVKVPMMKRLGMFNIQHCKKLSSWVLLMKYLGNATAIFFLPDEGKLQHLENELTHDIITKFLENEDRRSASLHLPKLSITGTYDLKSVLGQLGITKVFSNGADLSGVTEEAPLKLSKAVHKAVLTIDEKGTEAAGAMFLEAIPMSIPPEVKFNKPFVFLMIEQNTKSPLFMGKVVNPTQK [Y184A]	2.8 M	2 kcal/mol	54 °C	0.71 kcal/mol/M	7.9 kcal/mol/M	0.5 M	4.3 kcal/mol

Values joined by “and” are separate entries in the source; they are usually repeats but may differ in a detail not shown here. Identical values can stand only once.
